High-throughput results as filed in PubChem.
Only some compounds are listed: those with a hit (about 3.7% of all), similar ones and a draw of the others.
ClpP mod: qHTS Assay for Activators of ClpP; purified B. subtilis ClpP, FRET peptide cleavage, 20 min; Potency, µM (highest dose often 57.5 µM), inactives show at the top dose activity change, negative = active; 340,000 tested, 1.9% active; AID 651965, 2013; active = well fitted falling curve with a large enough effect; inconclusive = small, poorly fitted or top-dose-only effect; inactive = no such curve, though single readings can be large or run the other way; also: potency is read from the fitted curve at half-maximal effect; the source files actives as falling curves though it sought activators and does not explain the sign; nearly all actives have a fitted effect of over 65% in size
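ClpP 10 microg/mL final, pH 8 Tris/KCl buffer with BSA, glycerol, Tween-20; compound pinned in; FRET-FV substrate; RT 20 min; Ex320/Em430; ΔFRET vs ADEP 5.8 microM, DMSO, no enzyme.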
Nrf2 ARE act: Nrf2 pathway activation | 410,000 tested, 0.31% active | Potency, µM (highest dose often 46.1 µM), for the others: at the top dose activation, most hits filed as activators | AID 624171 | AREc32 ARE-luciferase reporter (MCF7-derived line), luminescence, 24 h; also: potency is read from the fitted curve at half-maximal effect; % of control where 0% means no effect; nearly all actives have a fitted effect of over 65% in size
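Cells of the AREc32 ARE-luciferase line are plated in OPTI-MEM containing 5% FBS and left overnight at 37 deg C. Compounds are pinned in, incubation continues 24 hr, and firefly luciferase signal is then measured.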
A549 viability: kills or reduces viability of A549 cells in Nrf2 counter-screen | A549 ARE-Fluc cells, CellTiter-Fluor viability, 18-24 h | Potency, µM (doses to about 46 µM), without a hit: at the highest dose activity change, negative = cytotoxicity, actives largely listed as inhibitors | 390,000 tested, 0.16% active; also: potency is read from the fitted curve at half-maximal effect; % is scaled to controls: 0 for no effect and ±100 for the full control effect
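A549 ARE_Fluc cells in 5% FBS OPTI-MEM were exposed to compounds in concentration-response for 18-24 h at 37 deg C. Viability was read by CellTiter-Fluor fluorescence (Ex 405/Em 525) after 30 min, before the luciferase read.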
miR-21 FLuc: miR-21 reporter, rising signal; Potency, µM (titrated, usually from 38.3 µM), without a hit: at the highest dose reporter change, positive = more light; AID 2288; 340,000 tested, under 10 active; HeLa miR-21 FLuc reporter, luciferase, 48 h; active = well fitted rising curve with a large enough effect; inconclusive = small, poorly fitted or top-dose-only effect; inactive = no such curve, though single readings can be large or run the other way;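 note: % of control where 0% means no effect; miR-21 action dims this reporter so a rising signal means less miR-21 action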
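Using DMEM plus 10% FBS, HeLa miR-21-FLuc cells are incubated with test compounds (final up to about 40uM) for 48 hours; firefly luciferase signal is then imaged following reagent-mediated lysis.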
IL-2 act: activates IL-2 in a cell-based reporter assay; IL-2 activation reporter assay, cell-based qHTS; stimulated with anti-CD3/CD4/CD28 beads; in transgenic mouse T cells; activation, % (series mostly up to about 46 µM); 360,000 tested, 0.065% active; in the data active = activation above about 50%; inconclusive = mostly about 30% to 49%; also: 0% is about no effect
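EGFP and DsRed fluorescence is measured by plate cytometry in unstimulated transgenic mouse T cells exposed to compound for 60 minutes, then stimulated 18 hours at 37 degrees C with anti-CD3/anti-CD4 beads plus anti-CD28.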
Nrf2 inh: inhibitors of Nrf2 signaling; A549 ARE-Fluc reporter, luciferase luminescence, 18-24 h; Potency, µM (doses to about 46 µM), without a hit: top-dose activity change, negative = inhibition, actives largely listed as inhibitors; 360,000 tested, 2.1% active; also: potency is read from the fitted curve at half-maximal effect; % is scaled to controls: 0 for no effect and ±100 for the full control effect; nearly all actives have a fitted effect of over 60% in size
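Cells were seeded and rested 2 h, then exposed to compounds for 18-24 h. CellTiter-Fluor was read first as a viability measure. BugLite was added 15 min before the final luminescent read of ARE-luciferase activity in A549 cells.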
Starred values were filed as active, the others as inactive; ? = inconclusive; nt = no result given; [ ] = another dose, or the depositor's remark. Unless noted, calls follow the shape of the dose curve; as a rule, active = well fitted curve in the direction sought with a large enough effect; inconclusive = small, poorly fitted or top-dose-only effect, or another doubt; inactive = no such curve, though single readings can be large; an effect the other way counts as inactive or inconclusive.

Order of values – A549 viability | miR-21 FLuc | Nrf2 inh | IL-2 act | ClpP mod | Nrf2 ARE act
COc1ccc2c(-c3ccccc3)cc(N3CCOCC3)nc2c1
    -1% | -4% | ? | -1 | 32µM* | 4%
COc1ccc2c(COC(=O)c3n[nH]c4ccccc34)cc(=O)oc2c1
    -7% | -50% | nt | 1 | 28µM* | 6%
Cc1cc(NC(=O)COC(=O)c2n[nH]c3ccccc23)no1
    0% | -18% | ? | 1 | 11µM* | 0%
Cc1cc2oc(=O)cc(COC(=O)c3n[nH]c4ccccc34)c2cc1C
    -24% | -9% | nt | 9 | -8% | 3%
CCCCCOc1ccc(C(=O)OCC(=O)Nc2cc(C)on2)cc1
    0% | nt | -4% | -2 | 18µM* | 0%
Cc1sc(-n2c(C)cc(/C=C3\SC(=S)NC3=O)c2C)c(C#N)c1C
    21µM* | -20% | ? | 1 | 1% | 9%
Cc1sc(-n2c(C)cc(/C=N/n3cnnc3)c2C)c(C#N)c1C
    -16% | 0% | 15µM* | -3 | 0% | 3%
Cc1cc(/C=C2\SC(=S)NC2=O)c(C)n1-c1cccc(O)c1
    ? | -37% | 12% | 3 | 1% | 5%
O=C(NNC(=O)C12CC3CC(CC(C3)C1)C2)c1cnccn1
    -5% | -5% | -7% | -2 | 1% | 0%
O=C(NNC(=O)C12CC3CC(CC(C3)C1)C2)c1ccccn1
    ? | 11% | 21µM* | -5 | -2% | ?
Cc1c(C(=O)N/N=C/c2ccc(N(C)C)cc2)[nH]c2ccc(Cl)cc12
    -12% | 21% | 23% | -2 | 32µM* | 0%
Cc1c(C(=O)N/N=C/c2ccccc2)[nH]c2ccc(Cl)cc12
    1% | 2% | 12% | 0 | -1% | 1%
CCOc1ccc(NC(=O)CSc2ncc3c(n2)-c2ccccc2N(Cc2ccccc2C)S3(=O)=O)cc1
    -1% | 4% | 6% | nt | -1% | 0%
CC(C)(C)CC(C)(C)N=C1Nc2cc(Cl)c(Cl)cc2N[C@]12C[C@H]1CCCC(=O)N3CC[C@@H](C2)[C@@H]13
    nt | nt | nt | nt | -4% | nt
CCOc1ccc(-n2c(=O)c3sc4ccccc4c3n(Cc3cccc(C)c3)c2=O)cc1
    -1% | -1% | 7% | nt | -9% | 0%
Cc1ccc2c(C)nc(N/C(N)=N/S(=O)(=O)c3ccccc3)nc2c1
    4% | -16% | 3% | -1 | 28µM* | 3%
Cc1ccc(S(=O)(=O)/N=C(\N)Nc2nc(C)c3ccc(C)cc3n2)cc1
    -7%[1.84 µM] | -3% | 8.2µM* | -1 | ? | 2%
CCCOc1ccc(NC(=O)CC2C(=O)N(c3ccccc3)C(=O)N2Cc2ccc(F)cc2)cc1 (stereo not drawn)
    3% | ? | 22% | nt | -1% | 8%
COc1ccc(C(=O)/C=C/C(=O)N(Cc2ccc3c(c2)OCO3)C(C(=O)NC2CCCCC2)c2ccncc2)c(O)c1 (stereo not drawn)
    6% | 1% | 4% | -1 | 13µM* | 9%
COc1cc(/C=C2\SC(=S)N(NC(=O)c3ccc(O)c(OC)c3)C2=O)ccc1O
    -1% | -29% | -1% | 0 | nt | 6%

3 entries from above, as labelled records.
Compound: Cc1cc2oc(=O)cc(COC(=O)c3n[nH]c4ccccc34)c2cc1C
  A549 viability: -24%
  miR-21 FLuc: -9%
  Nrf2 inh: nt
  IL-2 act: 9
  ClpP mod: -8%
  Nrf2 ARE act: 3%

Compound: COc1cc(/C=C2\SC(=S)N(NC(=O)c3ccc(O)c(OC)c3)C2=O)ccc1O
  A549 viability: -1%
  miR-21 FLuc: -29%
  Nrf2 inh: -1%
  IL-2 act: 0
  ClpP mod: nt
  Nrf2 ARE act: 6%

Compound: Cc1cc(NC(=O)COC(=O)c2n[nH]c3ccccc23)no1
  A549 viability: 0%
  miR-21 FLuc: -18%
  Nrf2 inh: ?
  IL-2 act: 1
  ClpP mod: 11µM*
  Nrf2 ARE act: 0%

The list continues:
Order of values – A549 viability | miR-21 FLuc | Nrf2 inh | IL-2 act | ClpP mod | Nrf2 ARE act
COc1cc(/C=C2\SC(=S)N(NC(=O)c3ccncc3)C2=O)ccc1O
    21µM* | 1% | ? | -5 | 1% | 0%
CCOC(=O)COc1c(C(=O)OC)sc2ncccc12
    -1% | -2% | -5% | 1 | 25µM* | 5%
COC(=O)c1sc2ncccc2c1OCc1c(Cl)cccc1Cl
    7% | -15% | -13% | 0 | -23% | 4%
COc1ccc(-c2cc(-c3nc4ccccn4c3NCc3ccccc3)ccc2OC)cc1
    ? | nt | 15µM* | 0 | 3% | -4%
CCC(C)Sc1cc(-c2nc3ccc(C)cn3c2NCc2ccccc2)ccc1OC (stereo not drawn)
    16µM* | nt | 21µM* | -1 | ? | -3%
